The entries are a selection whose mix differs from that of the whole data set. Activity calls are given as the source filed them.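 Rule for the calls: active = mean growth activity at or below -80% and every replicate also at or below -80%; inconclusive = mean at or below -80% but some replicate above -80%; inactive = mean growth activity above -80%.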

This experiment in a line: blockers of Clostridium difficile growth – HTS, primary screen (AID 1259249).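 Note: 0% = DMSO wells and -100% = levofloxacin 16 µg/mL wells.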 The following applies: Clostridium difficile clinical isolate growth, OD600, 24 h; active compounds read low; screened at 16 µg/mL (by protocol).
`COc1ccc(CN2/C(=N\P(=O)(Oc3ccccc3)Oc3ccccc3)Cc3ccccc3C2C2CC2)cc1` (stereo unspecified): the growth activity, negative = inhibition was inactive: 9.29%.

These data come from PubChem BioAssay AID1259249 (Broad Institute, 2017).
